# Results published in PubChem BioAssay AID540317 (National Center for Advancing Translational Sciences (NCATS), 2011).
# Protein sequences, listed by entry. Tags and fused reporters are not part of them.
# UniProt P83916, whole entry, looked up: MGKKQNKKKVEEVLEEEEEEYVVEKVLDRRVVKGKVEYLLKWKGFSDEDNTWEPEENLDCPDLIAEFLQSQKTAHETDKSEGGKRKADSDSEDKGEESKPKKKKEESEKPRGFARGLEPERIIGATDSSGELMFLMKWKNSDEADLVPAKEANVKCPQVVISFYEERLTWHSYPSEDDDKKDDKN
# This is a selection; strong and weak results do not stand in their true shares. Results filed as inconclusive are left out. Where a call stands in place of a potency, no number is given. Active and inactive are the calls of the source. Calls follow the shape of the dose curve; as a rule, active = well fitted inhibition curve with a large enough effect; inconclusive = small, poorly fitted or top-dose-only effect; inactive = no such curve, though single readings can be large or run the other way.
# Molecular target: Chromobox protein homolog 1 (Homo sapiens) (UniProt P83916)
# Assay: HTS for Inhibitors of HP1-beta Chromodomain Interactions with Methylated Histone Tails; also: nearly all actives have a fitted effect of over 70% in size
# Conditions: AlphaScreen HP1-beta / biotin-H3K9me3 peptide binding; series mostly up to 114 µM
# Potency is read from the fitted curve at half-maximal effect.
row,Structure (SMILES),Potency
1,CN(C)C1(CNC(=O)c2ccc(S(C)(=O)=O)cc2)CCCCC1,inactive
2,O=C(/C=C/c1ccccc1)OC1CN2CCC1CC2 (configuration not stated),inactive
3,CCCC1OP(=O)(Nc2ccccc2)OCC1CC (configuration not stated),inactive
4,Cc1nn(-c2ccccc2)c2c1P(=O)(N1CCOCC1)N(C)C(c1ccccc1)=N2 (configuration not stated),inactive
5,CC1CCC(C(C)C)C(OP(=O)(Nc2ccccn2)c2ccccc2)C1 (configuration not stated),inactive
6,Cc1ccc(C(=O)OC2CN3CCC2CC3)cc1 (configuration not stated),inactive
7,Nc1cccc([As](=O)(O)c2ccccc2)c1,inactive
8,Cc1ccc(OCC(=O)OC2CN3CCC2CC3)cc1 (configuration not stated),inactive
9,O=[As](O)(c1cccs1)c1cccs1,inactive
10,O=P1(Nc2ccc(Br)cn2)COc2ccccc2OC1,inactive
11,NS(=O)(=O)c1cccc(NC(=O)COC(=O)C(O)(c2ccccc2)c2ccccc2)c1,inactive
12,O=P1(Nc2ncccn2)COc2ccccc2OC1,inactive
13,Clc1n[nH]nc1-c1nn[nH][15n]1,inactive
14,CC(C)(C)C(=O)NC(Sc1ncccn1)C(Cl)(Cl)Cl (configuration not stated),inactive
15,O=P1(Nc2ccccn2)COc2ccccc2OC1,inactive
16,CCC1=CC2Cc3nc4ccc(Cl)cc4c(N)c3C(C1)C2 (configuration not stated),inactive
17,CCOP(=O)(NC(=NC(C)c1ccccc1)NC(C)c1ccccc1)OCC (configuration not stated),inactive
18,CCOP(=O)(Nc1ccc(C)cn1)OCC,inactive
19,CN(CCCl)Cc1cc(Cl)c(NC2=NCCN2)c(Cl)c1,inactive
20,CC(C)/C=N\N=C(\N)N[N+](=O)[O-],inactive
21,CN(C(=O)Cc1ccc(Cl)c(Cl)c1)[C@@H]1CCCC[C@H]1N1CCCC1,inactive
22,CC1(CBr)Cn2c(nc3ccccc3c2=O)S1 (configuration not stated),inactive
23,COc1ccccc1CNC(=O)COC(=O)C(O)(c1ccccc1)c1ccccc1,inactive
24,Cc1cccc(OCC(=O)OC2CN3CCC2CC3)c1 (configuration not stated),inactive
25,O=[As](O)(c1cccc(O)c1)c1cccc(O)c1,inactive
26,O=C(OC1CN2CCC1CC2)c1ccc(Cl)cc1 (configuration not stated),inactive

row,Structure (SMILES),Potency
1,O=[As](O)(O)c1cccnc1,inactive
2,COc1cc(C(=O)NCC2(N3CCOCC3)CCCCC2)cc(Cl)c1OC(C)C,inactive
3,CS(=O)(=O)c1ccc(Cl)c(NC(=O)COC(=O)C(O)(c2ccccc2)c2ccccc2)c1,inactive
4,COc1cc(C2NCCC3(OCCO3)C2(C)C)cc(OC)c1OC (configuration not stated),inactive
5,CCOP(=O)(Nc1cccc2ccccc12)OCC,inactive
6,Nc1cccc2c([As](=O)(O)O)cccc12,inactive
7,CCCOP(=S)(Nc1nc(N)cc(=O)[nH]1)OCCC,inactive
8,Nc1ccccc1[As](=O)(O)c1ccccc1,inactive
9,O=C(O)COc1ccc([As](=O)(O)O)cc1[N+](=O)[O-],inactive
10,CCOP1(=S)c2c(C)nn(CCC#N)c2N=C(c2ccccc2F)N1C (configuration not stated),inactive
11,O=P(Nc1nccs1)(Oc1ccccc1)Oc1ccccc1,inactive
12,O=P(Nc1nccs1)(c1ccccc1)c1nc2ccccc2s1 (configuration not stated),inactive
13,CS(=O)(=O)c1cc([N+](=O)[O-])c2no[n+]([O-])c2c1,active: 8.91 µM
14,N#CCCN(C(=O)COC(=O)C(O)(c1ccccc1)c1ccccc1)c1ccc(F)cc1,inactive
15,CN(C(=O)Cc1ccccc1)[C@@H]1CC[C@]2(CCCO2)C[C@H]1N1CCCC1,inactive
16,CCOP1(=S)c2c(C)nn(CCC#N)c2N=C(c2ccc(F)cc2)N1C (configuration not stated),inactive
17,O=[N+]([O-])c1ccc2c(c1)nnn2O,inactive
18,CN(C)C(=O)c1cc([N+](=O)[O-])cc2c1-c1c(cc([N+](=O)[O-])cc1[N+](=O)[O-])C2=O,inactive
19,CN(C(=O)Cc1ccc(Cl)c(Cl)c1)[C@H]1CC[C@@]2(CCCO2)C[C@@H]1N1CCCC1,inactive
20,NC(=O)Nc1ccc([As](=O)(O)O)cc1,inactive
21,Cc1ccc(OP(=O)(Nc2ccc([N+](=O)[O-])cn2)Oc2ccc(C)cc2)cc1,inactive
22,Cc1ccc2nc3c(c(C)c2c1)CC(C(Cl)Cl)S3 (configuration not stated),inactive
23,C[As](=O)(O)c1cccc(C(=O)O)c1,inactive
24,O=[As](O)(c1ccc(O)cc1)c1ccccc1O,inactive
25,COc1cc(C(=O)NCC2(N3CCOCC3)CCCCC2)ccc1OCC(C)C,inactive
26,CC(C)NC(=O)NP(=O)(Oc1ccccc1)Oc1ccccc1,inactive

row,Structure (SMILES),Potency
1,O=C(OC1CN2CCC1CC2)c1cccc2[nH]cnc12 (configuration not stated),inactive
2,O=[N+]([O-])c1cc([N+](=O)[O-])c(-c2ccn[nH]2)s1,inactive
3,ClCCSc1nnc(-c2cccnc2)o1,inactive
4,COC(=O)C1(C)COP(=O)(N2CCCCCC2)OC1 (configuration not stated),inactive
5,CC(C)c1ccc(OP(=O)(Nc2ccccn2)Oc2ccccc2F)cc1 (configuration not stated),inactive
6,O=P1(N(CCCl)CCCl)OCCCN1CCCl (configuration not stated),inactive
7,O=P1(N(CCCl)CCCl)Nc2ccccc2N1,inactive
8,COc1ccc2nc(NP(=O)(c3ccccc3)c3ccccc3)sc2c1,inactive
9,COc1cc(I)ccc1[As](=O)(O)O,inactive
10,Cc1c2c(nc3ccccc13)SC(C(Cl)Cl)C2 (configuration not stated),inactive
11,O=C(OC1CN2CCC1CC2)C12CC3CC(CC(C3)C1)C2 (configuration not stated),inactive
12,Cc1cc(=O)[nH]c(N[N+](=O)[O-])n1,inactive
13,COc1ccc(N/C(=N/P(=O)(N2CCOCC2)N2CCOCC2)N2CCOCC2)cc1,inactive
14,O=C(COc1ccccc1)OC1CN2CCC1CC2 (configuration not stated),inactive
15,O=C(Nc1ccncc1[N+](=O)[O-])c1ccc([N+](=O)[O-])cc1[N+](=O)[O-],inactive
16,COP1(=S)c2c(C)nn(CCC#N)c2N=C(c2ccc(F)cc2)N1C (configuration not stated),inactive
17,CCC(C)N(CC(C)C)C(=S)SC(NC(C)=O)C(Cl)(Cl)Cl (configuration not stated),inactive
18,CCOP(=O)(Nc1cccc2cccnc12)OCC,inactive
19,O=C(OC1CN2CCC1CC2)c1cccc([N+](=O)[O-])c1 (configuration not stated),inactive
20,CCOC(=O)c1ccc(NC(=O)C(C)(CCl)SC)cc1 (configuration not stated),inactive
21,CCCCOc1ccc(C(=O)NCC2(N3CCCCC3)CCCCC2)cc1OC,inactive
22,CCOC(=O)Nc1ccc([As](=O)(O)O)c(O)c1,inactive
23,CC1CCNP(=O)(N(CCCl)CCCl)O1 (configuration not stated),inactive
24,O=P(Nc1ccccn1)(c1cccc2ccccc12)c1cccc2ccccc12,inactive
25,Cc1cc(SC(NC=O)C(Cl)(Cl)Cl)ncn1 (configuration not stated),active: 17.8 µM
